Results from BindingDB's records for doi:10.1074/jbc.M109.067967 (University of Michigan, 2010).

The chains behind the UniProt entries cited, without tags or fusion partners. Residues count along the entry.
UniProt P22777, 23-402 limits assumed: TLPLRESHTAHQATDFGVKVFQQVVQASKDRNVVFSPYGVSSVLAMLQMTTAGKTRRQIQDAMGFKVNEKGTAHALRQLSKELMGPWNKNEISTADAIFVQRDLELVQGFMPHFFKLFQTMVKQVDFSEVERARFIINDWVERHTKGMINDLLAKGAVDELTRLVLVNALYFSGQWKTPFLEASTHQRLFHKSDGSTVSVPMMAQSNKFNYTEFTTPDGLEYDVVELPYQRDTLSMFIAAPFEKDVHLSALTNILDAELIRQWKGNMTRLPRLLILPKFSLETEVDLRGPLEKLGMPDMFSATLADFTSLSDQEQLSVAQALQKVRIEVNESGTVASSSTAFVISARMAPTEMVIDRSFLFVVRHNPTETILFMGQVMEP

Target: Plasminogen activator inhibitor 1 (Mus musculus, UniProt P22777)
Test: Enzymatic Assay
Conditions: pH 7.8; 23 °C

Compound: O=C(OC[C@H]1OC(OC(=O)c2cc(O)c(O)c(O)c2)[C@H](OC(=O)c2cc(O)c(O)c(O)c2)[C@@H](OC(=O)c2cc(O)c(O)c(O)c2)[C@H]1OC(=O)c1cc(O)c(O)c(O)c1)c1cc(O)c(O)c(O)c1 (stereo partly specified) [CDE-066]
- IC50: 0.01 µM
